## scFv variants of Ab-14 (heavy chain) against a SARS-CoV-2 spike peptide

The target is the same throughout: PDVDLGDISGINAS, from the HR2 region of SARS-CoV-2 spike.

Parent scFv Ab-14: VH joined to VL by three GGGGS repeats. Changes lie in the heavy chain CDRs alone.
VH: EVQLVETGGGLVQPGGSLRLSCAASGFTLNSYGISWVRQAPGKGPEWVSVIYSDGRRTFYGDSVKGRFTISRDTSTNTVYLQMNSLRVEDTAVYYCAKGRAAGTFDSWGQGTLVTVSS
VL: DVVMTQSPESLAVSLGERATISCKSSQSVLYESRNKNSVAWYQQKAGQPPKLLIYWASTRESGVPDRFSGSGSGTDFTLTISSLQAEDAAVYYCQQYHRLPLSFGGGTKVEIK

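Phage display of a naive human antibody library on the peptide gave the parent. These sequences belong to a second round, designed from the earlier measurements on random variants of the parent. Their group label is 14H_Ctrl (Ctrl: baseline library sampled from a position-specific scoring matrix, with some repeated check sequences). The assay is AlphaSeq: two haploid yeast populations carry antibody and antigen on their surface. The frequency of each diploid, read from paired DNA barcodes, reflects how well the two displayed proteins bind. Each replicate has its own calibration line, from reference interactions of the BCL2 family. The assay was run in six technical replicates.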

Positions count from residue 1 of the parent VH; S63N puts N in place of S. Scale: log10 of Kd in nM, estimated from mating counts; low values are strong binders. "nd" marks a missing value. The strain was present, yet no cells mated with the target were sequenced in that replicate, which points to weak or no binding. Background: pairings of all heavy chain designs with three empty control strains gave a value in 1% of cases (median 2.08, 5th percentile 0.84). Values in that range, when seen in few replicates, are hard to tell from nonspecific mating. Also given: how often the same scFv was detected with the empty control strains, with their mean in brackets.

changes,"log10 Kd, replicates",empty controls
S63N+D106S,-0.73 / 0.47 / -0.06 / -0.04 / -0.29 / -0.49,1/18 (1.31)
S53A+S63N,0.37 / 0.99 / 0.34 / 0.06 / 0.67 / 0.79,0/18
L29I+F105W+D106P,nd / nd / nd / nd / nd / nd,0/18
S63F+R100E,nd / nd / nd / nd / nd / nd,0/18
S31D+A101K+F105K,nd / nd / nd / nd / nd / nd,0/18
F105S+S107F,nd / nd / nd / nd / nd / nd,0/18
S31D+G61E+T104S,nd / nd / 1.57 / nd / 1.14 / 2.01,0/18
R56W+G61V+A101C,nd / nd / nd / nd / nd / nd,0/18
T28D+A101C+D106K+S107V,nd / nd / -0.33 / nd / nd / nd,0/18
N30E+S31D,1.15 / 1.23 / 2.06 / 1.55 / 1.12 / 0.47,0/18
D62G+A101V+T104E+S107M,nd / nd / nd / nd / nd / nd,0/18
N30D+F59A,-0.22 / 0.44 / 0.41 / 0.04 / 0.37 / 0.68,0/18
S31M+R56V+S63D+S107W,nd / nd / nd / nd / nd / nd,0/18
R100V+A102I,nd / nd / nd / nd / nd / nd,0/18
T28N+D62N+A101V+T104S+S107M,3.28 / nd / 1.59 / 2.26 / nd / nd,0/18
R56Q+D106K,nd / 0.83 / 1.54 / 0.13 / 1.54 / 1.37,0/18
T28N+R56Q,nd / nd / 0.95 / 0.98 / 0.28 / 1.04,0/18
F27T+F59A+S63R,nd / 1.49 / 1.44 / 0.64 / 0.43 / nd,0/18
G26R+R56F+F59D+R100P+G103I,nd / nd / nd / nd / nd / nd,0/18
S53R+F105N,nd / nd / nd / nd / nd / nd,0/18
T28N+F59A+G99D,nd / nd / nd / nd / nd / nd,1/18 (2.76)
Y32F+A101V+A102E+T104A,nd / nd / nd / nd / nd / nd,0/18
N30E+R100E+T104G,nd / nd / nd / nd / nd / nd,0/18
T28S+G103I+F105T,nd / nd / nd / nd / nd / nd,0/18
F27H+A102I,nd / nd / nd / nd / 2.48 / nd,0/18
T58N+R100A,nd / nd / nd / nd / nd / nd,0/18
S31Q+S63E,nd / 1.92 / 1.60 / 1.39 / 0.49 / 2.86,0/18
L29P+R56K+S63K+R100K,nd / 1.31 / nd / nd / nd / nd,0/18
R56Y+F105K+S107V,nd / nd / nd / nd / nd / nd,0/18
N30L+G61I,nd / nd / nd / nd / nd / nd,0/18
T28R+T58E+A101D+A102S,nd / nd / nd / nd / nd / nd,0/18
R56M+A101K+A102D,nd / nd / nd / nd / nd / nd,1/18 (2.29)
T28D+S31Q+I34V,0.39 / 0.11 / -0.20 / -0.09 / -0.17 / 0.06,0/18
T28A+A101C,nd / nd / nd / nd / nd / nd,0/18
T28P+G61R,nd / nd / nd / nd / nd / nd,0/18
G61T+A101G+T104K,nd / nd / nd / nd / nd / 0.49,0/18
S31D+I51D,nd / nd / nd / nd / nd / nd,0/18
T28G+N30Q+R100G,nd / nd / nd / nd / nd / nd,0/18
A102V+S107L,nd / nd / nd / nd / nd / nd,0/18
S53E+R56E+T58G+K65S+A101L,nd / nd / nd / nd / nd / 3.02,0/18
T28E+S31K+R100A,0.45 / 0.66 / 0.92 / 0.21 / -0.09 / 0.37,1/18 (1.96)
G61L+A102H,nd / nd / nd / nd / nd / nd,0/18
G33S+S35N+G61L+D62N+A101I,nd / nd / nd / nd / nd / nd,0/18
R56E+R100Y,0.61 / 0.52 / 0.53 / 0.10 / -0.27 / 0.48,0/18
Y32Q+R56M+F59S,nd / 2.44 / nd / nd / nd / nd,0/18
T28D+R57D,nd / nd / 2.91 / nd / nd / nd,1/18 (2.58)
R100G+A102V,nd / nd / nd / nd / nd / nd,0/18
S63K+R100Y+A102G,nd / nd / nd / nd / nd / nd,0/18
S35Q+R56K+F59A,nd / nd / nd / nd / nd / nd,0/18
N30A+F59Q+A101L+G103F,nd / nd / nd / nd / nd / nd,0/18
S35T+D62N+K65R,nd / nd / nd / nd / nd / nd,0/18

Excerpt, the first 6 entries:

{"changes": "S63N+D106S", "log10 Kd, replicates": "-0.73 / 0.47 / -0.06 / -0.04 / -0.29 / -0.49", "empty controls": "1/18 (1.31)"}
{"changes": "S53A+S63N", "log10 Kd, replicates": "0.37 / 0.99 / 0.34 / 0.06 / 0.67 / 0.79", "empty controls": "0/18"}
{"changes": "L29I+F105W+D106P", "log10 Kd, replicates": "nd / nd / nd / nd / nd / nd", "empty controls": "0/18"}
{"changes": "S63F+R100E", "log10 Kd, replicates": "nd / nd / nd / nd / nd / nd", "empty controls": "0/18"}
{"changes": "S31D+A101K+F105K", "log10 Kd, replicates": "nd / nd / nd / nd / nd / nd", "empty controls": "0/18"}
{"changes": "F105S+S107F", "log10 Kd, replicates": "nd / nd / nd / nd / nd / nd", "empty controls": "0/18"}

Of ten entries with the parent sequence, four were seen in most replicates (averages 0.34 to 2.37), three in one and three in none, so single entries are noisy. A sequence measured in both rounds can read differently, since the two assays cover different ranges. The authors' rule: three or more of the six replicates give a measured affinity, fewer mean a poor binder.

Values reported by Li et al. 2023, doi:10.1038/s41467-023-39022-2 (FLAb copy).